From patent publication US9291619B2, “Method for detecting non-transferrin bound iron” (Yissum Research Development Company of the Hebrew …, priority 2011, dated 2016)

Assays:
[1] = LPI (labile plasma iron) assay without NTA; format: biochemical, human; details: added to sera from 6 thalassemic patients; citrate 0.15 mM, albumin 10 mg/ml, uric acid 0.5 mM
Description: Determination of LPI and DCI. The properties of the assays used in this study in their different modalities are compiled in Table 2, below.
LPI determination, The LPI (Labile iron in plasma) assay was used as described previously or in the presence of NTA added from a concentrated solution. In experiments testing the effects of various additives on LPI, 20 μl of the additives dissolved in HBS (HEPES buffered saline composed of 20 mM HEPES, 150 mM NaCl, pH 7.4) were mixed with 20 μl of serum. Control samples and iron standards were similarly diluted with HBS. LPI assays without added NTA (‘redox-active LPI’) are designated “LPI” and LPI assays with added NTA (0.5 mM unless stated otherwise) are designated “eLPI”.
Measurements of LPI were originally designed for the detection of labile forms of iron in native human plasma or serum. […] This led to simple and sensitive assays that are performed under nearly physiological conditions, with 40 μM ascorbate added to initiate redox cycling of the iron and ensuing generation of reactive oxygen species (ROS) that are quantified by a fluorescence assay (Table 1). […] The detected LPI reflects the most labile or redox-active forms of NTBI in native plasma or serum, but not putative forms bound to non-labile ligands (e.g. citrate, albumin) In addition, the detection of LPI might be susceptible to masking by plasma antioxidants. […]

[2] = DCI (directly chelatable iron) assay with fluorescein-DFO; format: biochemical, human; details: added to thalassemia sera
Excerpt: DCI determination. The DCI assay (directly chelatable iron) was used for sample analysis of labile iron by assessing its binding to fluorescein-DFO (Table 1) with a fluorescence plate reader or adapted for flow cytometry using as analytical probe fluorescein and DFO covalently coupled to chemically modified polystyrene beads (Spherotec Inc., Lake Forest, Ill., USA) (and an Eclipse instrument (iCyt, Champaign, Ill., USA) (Breuer et al, to be published elsewhere). In tests of the effect of NTA on DCI determination, NTA was added from a stock solution directly to the assay reagents. In experiments testing the effects of various additives on DCI, 20 μl of the additives dissolved in HBS were mixed with 20 μl of serum samples and the combined mixture (40 μl) was used in the assay. Control samples and iron standards were similarly diluted with HBS. In previous publications the term DCI has always indicated the assay format without NTA. In the present work the two formats of the
DCI assay are designated DCI (−) (without NTA) and DCI (+) (with 0.1 mM NTA).
For comparing eLPI with NTBI, the present inventors have employed an alternative assay for NTBI, termed directly-chelatable iron or DCI (FIG. 2, lower panel). Unlike LPI and eLPI which measure iron redox activity, DCI measures the accessibility of NTBI to a fluorescent, high-affinity chelator probe (fluorescein-DFO). […]

Substance: human serum albumin: iron-depleted human serum albumin Fraction V, dialyzed with DFO
- effect of added serum component on measured LPI values [1]: significantly attenuated
- effect of added serum component on DCI values [2]: attenuating effect
